From ChEMBL document CHEMBL4145449, “Synthesis and biological evaluation of novel thiazole- VX-809 hybrid derivatives as F508del correctors by QSAR-based filtering tools” (Eur J Med Chem, 2018)

By UniProt entry, the sequences of proteins in these tests, tags left out. Chains listed by the source or under a name are the forms on record and can include a tag or linker.
UniProt P13569, as listed by the source: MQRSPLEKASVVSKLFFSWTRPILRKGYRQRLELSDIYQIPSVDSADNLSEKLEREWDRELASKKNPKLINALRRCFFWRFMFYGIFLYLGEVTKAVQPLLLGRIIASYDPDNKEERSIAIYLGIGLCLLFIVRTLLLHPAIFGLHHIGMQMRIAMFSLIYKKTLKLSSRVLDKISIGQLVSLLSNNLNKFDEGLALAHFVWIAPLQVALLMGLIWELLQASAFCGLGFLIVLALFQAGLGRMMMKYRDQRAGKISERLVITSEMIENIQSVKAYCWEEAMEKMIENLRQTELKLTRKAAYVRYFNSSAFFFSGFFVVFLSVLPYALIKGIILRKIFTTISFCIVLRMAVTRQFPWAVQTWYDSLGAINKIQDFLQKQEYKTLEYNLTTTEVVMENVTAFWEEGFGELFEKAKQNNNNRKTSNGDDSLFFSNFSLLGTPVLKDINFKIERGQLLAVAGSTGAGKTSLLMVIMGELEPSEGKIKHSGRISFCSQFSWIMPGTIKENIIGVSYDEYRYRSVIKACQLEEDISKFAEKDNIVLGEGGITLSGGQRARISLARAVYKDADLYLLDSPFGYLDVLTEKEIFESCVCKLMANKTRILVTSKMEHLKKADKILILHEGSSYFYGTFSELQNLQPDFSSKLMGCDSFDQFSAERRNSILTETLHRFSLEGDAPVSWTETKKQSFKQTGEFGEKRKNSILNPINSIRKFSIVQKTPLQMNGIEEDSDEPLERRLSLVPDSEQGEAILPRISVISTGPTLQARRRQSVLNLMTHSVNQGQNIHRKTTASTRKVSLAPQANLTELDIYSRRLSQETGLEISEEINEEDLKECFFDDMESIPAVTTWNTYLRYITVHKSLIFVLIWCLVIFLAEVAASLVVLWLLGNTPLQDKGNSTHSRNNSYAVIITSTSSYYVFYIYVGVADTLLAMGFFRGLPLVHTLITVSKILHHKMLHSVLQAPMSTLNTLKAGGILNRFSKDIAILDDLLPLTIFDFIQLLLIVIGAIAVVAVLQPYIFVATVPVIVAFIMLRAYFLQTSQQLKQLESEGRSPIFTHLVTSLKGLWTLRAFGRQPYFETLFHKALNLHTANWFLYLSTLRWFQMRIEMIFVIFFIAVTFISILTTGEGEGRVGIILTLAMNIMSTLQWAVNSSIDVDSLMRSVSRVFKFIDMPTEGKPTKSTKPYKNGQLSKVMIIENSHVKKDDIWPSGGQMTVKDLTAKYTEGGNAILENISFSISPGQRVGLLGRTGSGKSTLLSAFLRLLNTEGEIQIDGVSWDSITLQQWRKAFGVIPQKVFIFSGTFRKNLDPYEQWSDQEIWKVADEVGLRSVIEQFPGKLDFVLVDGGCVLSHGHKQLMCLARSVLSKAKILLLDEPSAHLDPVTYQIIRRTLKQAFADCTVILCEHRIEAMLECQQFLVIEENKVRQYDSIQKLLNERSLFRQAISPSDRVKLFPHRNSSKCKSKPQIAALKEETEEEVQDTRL

Target: Cystic fibrosis transmembrane conductance regulator (Homo sapiens, UniProt P13569, F508DEL)
Experiment: Corrector activity at CFTR F508-del mutant (unknown origin) expressed in human CFBE41o cells harboring HS-YFP preincubated for 24 hrs followed by forskolin/genistein stimulation for 30 mins by fluorescence assay
Format: cell-based
Outline: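 After plating (50,000 cells/well, 24 h, 37 °C, 5% CO2), F508del-CFTR/HS-YFP CFBE41o- cells were exposed 24 h to compound, then stimulated 30 min at 37 °C with forskolin (20 μM) + genistein (50 μM). Fluorescence read 2 s before and 12 s after iodide addition (final 100 mM); quenching rate (dF/dt) from exponential fit of final 10 s; compared with DMSO.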

EC50: 4 µM
Compound: O=C(Nc1nc(-c2cccc(Cl)c2)cs1)C1(c2ccc3c(c2)OC(F)(F)O3)CC1
